Apparent affinities of Ab-14 variants for a coronavirus HR2 peptide

All variants were tested on one target, the spike HR2 peptide PDVDLGDISGINAS (SARS-CoV-2).

Parent: Ab-14, a human scFv built as VH, the linker GGGGSGGGGSGGGGS, VL. Only the CDRs of the light chain vary.
VH: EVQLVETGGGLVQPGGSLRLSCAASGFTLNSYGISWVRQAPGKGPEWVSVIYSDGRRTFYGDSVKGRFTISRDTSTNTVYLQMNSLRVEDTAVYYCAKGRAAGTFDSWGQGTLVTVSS
VL: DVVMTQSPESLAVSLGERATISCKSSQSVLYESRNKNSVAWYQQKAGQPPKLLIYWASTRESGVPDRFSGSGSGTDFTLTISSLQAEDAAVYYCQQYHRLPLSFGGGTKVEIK

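The variants were designed computationally from a first round of random CDR variants and then made and measured. Group labels follow the data file (Ctrl: baseline library sampled from a position-specific scoring matrix, with some repeated check sequences; En: ensemble of fine-tuned language models; GP: Gaussian process model; HC: hill climbing; Gen: genetic algorithm; Gibbs: Gibbs sampling; a sequence that several methods proposed may carry one label only). The assay is AlphaSeq: two haploid yeast populations carry antibody and antigen on their surface. The frequency of each diploid, read from paired DNA barcodes, reflects how well the two displayed proteins bind. Read counts were normalised to the haploid input and turned into Kd by a linear fit to BCL2-family pairs of known affinity, for each replicate. Mating was done six times.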

The parent's light chain CDRs are KSSQSVLYESRNKNSVA, WASTRES, QQYHRLPLS; each variant's own CDRs replace them letter for letter.
Scale: log10 of Kd in nM, estimated from mating counts; low values are strong binders.
Replicates are averaged; those with no signal do not enter the mean.
A pair that was not seen in any replicate is written "nd"; this usually means weak binding, but a binder can also be missed.
The authors averaged sequences with at least three values out of six and counted those with two or fewer as poor binders.

CDR-L1	CDR-L2	CDR-L3	group	log10 Kd (nM), mean	seen in	signal with controls
MSSQEVLYESFNKNSVA	WASTRES	SQYHRLPLS	Ctrl	1.75	1 of 6	1 of 18
MISQLINMGQFAINSVA	QAEIRNE	QQYDRLPLT	En_Gen	nd	0 of 6	0 of 18
KSSQQVLYEDKQVNSVA	NASQRES	QQYHRLPLS	GP_Gibbs	0.18	6 of 6	0 of 18
MISQLFNMGQFAINSVA	QASTRCE	QQYDRLPLI	En_Gen	1.61	6 of 6	0 of 18
KSLQSVLYESRDKNSVA	EASTRED	QQYHRLPLS	GP_HC	0.75	6 of 6	1 of 18
KLSKVTGHMSMAKNNVA	EMVTREK	QQYNRLPLS	En_Gen	1.29	6 of 6	1 of 18
QLRDAQWAEGMNKQSIA	ENEVSKD	QQYNRLPLS	En_Gibbs	1.49	3 of 6	0 of 18
MMSSLMGYESRHINNVA	QTSTRED	QQYDRLPLV	En_Gen	0.35	6 of 6	2 of 18
KLTQVTGHLSAIKNNVA	EMVTREN	QQYNRLPLS	En_Gen	0.57	6 of 6	1 of 18
KINQLMNIEQMNSKSVA	HTSTREN	QQYHRLPLS	En_HC	0.26	6 of 6	1 of 18
KLSQFYRMESRNKNSVA	DNSTREY	QDYDRLPLS	En_HC	nd	0 of 6	1 of 18
KQSQSVSGESRNKNSVA	MASTRES	QQYHRLPLS	GP_HC	0.71	6 of 6	3 of 18
KFSQSVLYESRTKNSVA	NASTRES	QCYHRLPLS	GP_HC	0.34	6 of 6	3 of 18
KVSQSFLYESRNKNAVA	GASTRES	QQYHRLNLS	GP_HC	2.75	1 of 6	1 of 18
KISQSVLMESLNKNSVA	HASTRIW	QQYHRLPLS	GP_Gibbs	0.74	6 of 6	2 of 18
MISQLMNMGQFAINSVA	QASERSN	QQYDRLPLI	En_Gen	0.94	6 of 6	2 of 18
KLCQSQLYESRNKNSVA	HASTRED	QQYHRLPLS	GP_HC	-0.20	6 of 6	2 of 18
KSSPSVLYESHNKNSVA	EASTRMS	QQYHRLPLS	GP_HC	0.49	6 of 6	0 of 18
KSSQSVPYESRNKNSVA	WASTRED	QQYHRLQLS	Ctrl	nd	0 of 6	0 of 18
KLSQSWLYESRNKNSVA	EASTRMS	QQYHRLPLS	GP_Gen	-0.16	6 of 6	3 of 18
QISGITGHMSTLKNNVA	EMVTRAN	QQYNRLPLS	En_Gen	0.45	6 of 6	0 of 18
MMSQVSGQGTRHRNNVA	QTSTREP	QQYDRLPLV	En_Gen	0.69	6 of 6	2 of 18
KLPQSELYESRNKNSVA	NASTRES	QQYHRLPLS	GP_Gen	-0.12	6 of 6	1 of 18
SSGQSVLYESRNKISVA	WASTRES	QQYHRLPLS	Ctrl	nd	0 of 6	1 of 18
NLAMAYEQGILIKNNIA	SDNLREN	QQYEKLPLI	En_Gibbs	1.87	1 of 6	0 of 18
KSSQPVLYESRNKNSIA	EASTRES	QQYHRLPLS	Ctrl	0.39	6 of 6	1 of 18
KLDQLVDEESRNKNAVA	EASTRES	QQYHRLPLS	GP_Gibbs	0.52	6 of 6	1 of 18
TLKMDKLPGQVNAYNIA	EAELVEN	QQYFHLPLY	En_Gibbs	nd	0 of 6	0 of 18
KLMQSVLYESRNKNSVA	HASTRED	QQYHRLPLS	GP_HC	0.24	6 of 6	0 of 18
KSSQSVSYESRDKNSVA	WASTRES	CQYHHLPLS	Ctrl	nd	0 of 6	0 of 18
KSSQSILYEMRNKNSVA	DASTRES	QQYHRLPLS	Ctrl	0.26	6 of 6	1 of 18

Continued, with the values leading:

log10 Kd (nM), mean	seen in	signal with controls	CDR-L1	CDR-L2	CDR-L3	group
0.42	6 of 6	0 of 18	KVDQWWDYGSRNKNSVA	NASTRER	QQYHRLPLS	GP_Gibbs
0.24	6 of 6	1 of 18	KVSQSFLYESRNKNSVA	GASTRES	QNYHRLPLS	GP_HC
0.17	6 of 6	1 of 18	KLSQSVLYGDRNKNSVA	HASTRCS	QQYHRLPLY	GP_Gibbs
0.93	6 of 6	0 of 18	KVPGSNDYESRNKNSVA	EASTRES	QDYHRLPLS	GP_Gibbs
-0.05	6 of 6	0 of 18	ALSQMMDMTSRNVNSVA	DLTTREN	QQYHRLPLS	En_HC
-0.70	6 of 6	0 of 18	KVSQSYLYESRNKNAVA	NASQRES	QQYHRLPLS	GP_Gen
2.13	4 of 6	2 of 18	MLSQMWAIGMKVSNSVA	QANMRFN	QQYDRLPLI	En_Gen
2.41	3 of 6	0 of 18	KVSEFMRGLTQRKDSIA	DNVTRGN	QQYDRLPLS	En_Gen
0.71	6 of 6	1 of 18	KSSQQVLYESRNKNSVA	SASTRES	QQYHRLPLS	Ctrl
0.53	6 of 6	6 of 18	RVTILSDPYLENRNAIA	QTSLRAH	QQYQMLPLT	En_Gibbs
1.48	5 of 6	0 of 18	QFSNVNMQGLAQWANVA	EASYAFE	QQYARLPLQ	En_Gibbs
0.15	6 of 6	4 of 18	KLGQGVLYESRNKNSVA	GASQRWS	QQYHRLPLS	GP_HC
-0.01	6 of 6	1 of 18	KVSQSELYESRNKNAVA	NASQRES	QQYHRLPLS	GP_Gen
0.26	6 of 6	4 of 18	KLEQSCLYESRNKNSVA	NASTRES	QQYHRLPLS	GP_Gen
0.90	6 of 6	1 of 18	MLSQMTGLGMKASNSVA	QANMRFD	QQYHRLPLI	En_Gen
0.60	6 of 6	1 of 18	KLSMSTSYESLNRNSVA	ELTTRGG	QQYNRLPLS	En_HC
0.19	6 of 6	0 of 18	KLQFSVLYESRNKNSVA	EASTRES	QQYHRLPLS	GP_Gen
1.30	6 of 6	0 of 18	KSQQSVLDEERNDNSVA	WASHRES	QQYHRLPLS	GP_Gibbs
-0.07	6 of 6	0 of 18	KQSQSDLMESRNKNSVA	DASTRES	QQYHRLPLS	GP_HC
0.29	6 of 6	0 of 18	KSQQSVLYESGNKNSVA	NASTRES	QQYSRLPLF	Ctrl
nd	0 of 6	0 of 18	KSSQSVLYESRSKNSVA	HASTRES	QQYHRLPCS	Ctrl
0.30	6 of 6	4 of 18	KLKQSQLYESRNKNSVA	NASTRES	QQYHRLPLS	GP_Gen
0.92	6 of 6	1 of 18	MISDLMLYGSRARNPIA	NASTREY	QQYHRLPLE	En_HC
0.18	6 of 6	0 of 18	SLHHYFLGENGMRGSVA	NATIRDQ	QQYFRLPLF	En_Gibbs
1.64	6 of 6	0 of 18	TLMHHQDYGGEEKKSIA	NAIIKEE	QQYSRLPLA	En_Gibbs
0.14	6 of 6	1 of 18	KLYDMSALSVTNIRNVA	DNSTREA	QQYHRLPLS	En_Gen
0.26	6 of 6	0 of 18	KISQMQNFESTHINAVA	QMSTREE	QQYFRLPLS	En_HC
0.46	6 of 6	0 of 18	KISQNMGETWRNKNSVA	EVSTVPS	QQYWRLPLS	En_HC
0.37	6 of 6	3 of 18	KLSQSDLYESRNKNSVA	HASQRES	QQYHRLPLS	GP_Gen
0.73	6 of 6	0 of 18	QLEWYNSTATAAKNSVA	GVEHRMN	QQYMRLPLF	En_Gibbs
2.20	5 of 6	0 of 18	MISQLMNMGQFAINSVA	QASIRNA	QQYDRLPLV	En_Gen
0.67	5 of 6	0 of 18	KFQQSQLYEQRNQNSVA	SASYRMS	QQYHRLPLS	GP_Gibbs

A selection of 5 entries from above:

| CDR-L1 | CDR-L2 | CDR-L3 | group | log10 Kd (nM), mean | seen in | signal with controls |
|---|---|---|---|---|---|---|
| MISQLMNMGQFAINSVA | QASIRNA | QQYDRLPLV | En_Gen | 2.20 | 5 of 6 | 0 of 18 |
| SSGQSVLYESRNKISVA | WASTRES | QQYHRLPLS | Ctrl | nd | 0 of 6 | 1 of 18 |
| KISQNMGETWRNKNSVA | EVSTVPS | QQYWRLPLS | En_HC | 0.46 | 6 of 6 | 0 of 18 |
| KSSQSILYEMRNKNSVA | DASTRES | QQYHRLPLS | Ctrl | 0.26 | 6 of 6 | 1 of 18 |
| KLSQSWLYESRNKNSVA | EASTRMS | QQYHRLPLS | GP_Gen | -0.16 | 6 of 6 | 3 of 18 |

Values of this round are not directly comparable with the first-round values of the same sequences.
Empty control strains, which show no peptide, gave a signal in 4% of pairings with all light chain designs; the median was 2.64 and 95% of these signals were weaker than 1.59. No background was subtracted. The control count says in how many pairings with the empty strains this scFv gave a signal.
Of ten entries with the parent sequence, four were seen in most replicates (averages 0.34 to 2.37), three in one and three in none, so single entries are noisy.

From the AlphaSeq antibody data of Li et al. 2023 (doi:10.1038/s41467-023-39022-2), copy in the FLAb collection.